Laboratory results reported in ChEMBL document CHEMBL1135092, “Molecular design and structure--activity relationships leading to the potent, selective, and orally active thrombin active site inhibitor BMS-189664” (Bioorg Med Chem Lett, 2002).

Target: Prothrombin (Homo sapiens, UniProt P00734)
Test: In vitro inhibitory activity against hydrolysis of human alpha thrombin

Row | Structure (SMILES) | IC50
1 | NC(=O)CC[C@@H](NS(=O)(=O)c1ccc2ccccc2c1)C(=O)N1CCC[C@H]1C(=O)NCCCCN=C(N)N | 26.6 µM
2 | CS(=O)(=O)N[C@H](Cc1ccccc1)C(=O)N1CCC[C@H]1C(=O)NCCc1cnc[nH]1 | 134 µM
3 | N=C(N)N1CCC(CNC(=O)[C@@H]2CCCN2C(=O)[C@@H](Cc2ccccc2)NS(=O)(=O)Cc2ccccc2)CC1 | 0.01 µM
4 | N=C(N)NCCCCNC(=O)[C@@H]1CCCN1C(=O)[C@@H](Cc1ccccc1)NS(=O)(=O)C(F)(F)F | 110 µM
5 | CS(=O)(=O)N[C@H](Cc1ccccc1)C(=O)N1CCC[C@H]1C(=O)NCCCCNC(=N)N | 1.4 µM
